Experimental data as given in ChEMBL document CHEMBL2385080, “Designing bifunctional NOP receptor-mu opioid receptor ligands from NOP receptor-selective scaffolds. Part I” (2013).
pEC50, pKi: −log10 of the molar value.

Sequences of proteins named here, by UniProt entry; tags and fusion partners are left off.
UniProt P41145, whole entry: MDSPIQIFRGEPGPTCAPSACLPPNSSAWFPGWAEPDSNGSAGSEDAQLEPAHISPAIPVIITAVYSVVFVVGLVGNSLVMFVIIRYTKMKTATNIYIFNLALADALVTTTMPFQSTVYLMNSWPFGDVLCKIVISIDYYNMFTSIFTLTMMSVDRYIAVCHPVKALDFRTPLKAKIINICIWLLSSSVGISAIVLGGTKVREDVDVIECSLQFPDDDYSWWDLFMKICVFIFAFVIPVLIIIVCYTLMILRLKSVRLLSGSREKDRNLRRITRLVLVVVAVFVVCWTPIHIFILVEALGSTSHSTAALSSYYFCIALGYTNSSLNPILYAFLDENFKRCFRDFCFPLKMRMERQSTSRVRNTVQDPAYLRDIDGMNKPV
UniProt P35372, whole entry: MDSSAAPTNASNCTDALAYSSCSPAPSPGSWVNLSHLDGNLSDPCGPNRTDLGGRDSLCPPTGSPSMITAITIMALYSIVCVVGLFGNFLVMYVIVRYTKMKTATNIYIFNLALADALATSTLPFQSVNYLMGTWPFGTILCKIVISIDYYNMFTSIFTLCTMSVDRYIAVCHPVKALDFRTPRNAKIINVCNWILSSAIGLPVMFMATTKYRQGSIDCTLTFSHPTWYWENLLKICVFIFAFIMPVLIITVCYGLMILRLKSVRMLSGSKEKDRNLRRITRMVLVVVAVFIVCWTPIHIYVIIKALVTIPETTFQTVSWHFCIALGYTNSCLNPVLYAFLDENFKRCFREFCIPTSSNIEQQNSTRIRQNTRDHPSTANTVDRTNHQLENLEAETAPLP
UniProt P41146, whole entry: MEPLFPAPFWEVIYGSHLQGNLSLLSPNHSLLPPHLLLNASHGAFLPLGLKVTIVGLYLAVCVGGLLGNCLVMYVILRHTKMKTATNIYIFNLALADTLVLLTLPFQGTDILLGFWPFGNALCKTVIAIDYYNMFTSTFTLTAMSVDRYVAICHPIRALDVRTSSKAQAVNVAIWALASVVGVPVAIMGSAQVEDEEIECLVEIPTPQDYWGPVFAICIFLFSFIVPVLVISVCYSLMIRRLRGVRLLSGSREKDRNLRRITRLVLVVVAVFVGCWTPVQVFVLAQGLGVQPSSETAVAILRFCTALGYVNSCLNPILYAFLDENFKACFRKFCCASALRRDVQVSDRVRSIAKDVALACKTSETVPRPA

Assays:
[1] = biological target: T1, Kappa-type opioid receptor (Homo sapiens, UniProt P41145); experiment: Agonist activity at human kappa opioid receptor transfected in CHO cells assessed as stimulation of [35S]GTPgammaS binding by liquid scintillation counting analysis
Mu-type opioid receptor [2] = biological target: T2, Mu-type opioid receptor (Homo sapiens, UniProt P35372); experiment: Agonist activity at human mu opioid receptor transfected in CHO cells assessed as stimulation of [35S]GTPgammaS binding by liquid scintillation counting analysis
Nociceptin receptor [3] = biological target: T3, Nociceptin receptor (Homo sapiens, UniProt P41146); experiment: Agonist activity at human nociceptin receptor transfected in CHO cells assessed as stimulation of [35S]GTPgammaS binding by liquid scintillation counting analysis
[4] = biological target: T1, Kappa-type opioid receptor; experiment: Displacement of [3H] U69593 from human kappa opioid receptor transfected in CHO cells
Mu-type opioid receptor [5] = biological target: T2, Mu-type opioid receptor; experiment: Displacement of [3H]DAMGO from human mu opioid receptor transfected in CHO cells
Nociceptin receptor [6] = biological target: T3, Nociceptin receptor; experiment: Displacement of [3H] N/OFQ from human nociceptin receptor transfected in CHO cells

SMILES	pEC50 [1]	pEC50 (Mu-type opioid receptor [2])	pEC50 (Nociceptin receptor [3])	pKi [4]	pKi (Mu-type opioid receptor [5])	pKi (Nociceptin receptor [6])
CC(C1CCCCC1)N1CCC(N2C(=O)Cc3ccccc32)CC1 (configuration not stated)	6.06	–	–	–	–	–
CCC[C@H]1CC[C@@H](N2CCC(N3C(=O)Cc4ccccc43)CC2)CC1	–	6.23	6.97	6.72	8.27	8.12
O=C1Cc2ccccc2N1C1CCN(C2CCCCCCC2)CC1	–	–	7.68	–	–	–
CC(c1ccccc1)N1CCC(N2C(=O)Cc3ccccc32)CC1 (configuration not stated)	6.37	–	–	–	–	–
CC1C(=O)N(C2CCN(C3CCCCCCC3)CC2)c2ccccc21 (configuration not stated)	> 5.00	7.03	7.52	7.41	7.98	7.90
CC(C)C1CCC(N2CCC(N3C(=O)CCc4ccccc43)CC2)CC1 (configuration not stated)	> 5.00	7.17	6.90	7.15	8.12	7.69
CCC1C(=O)N(C2CCN(C3CCCCCCC3)CC2)c2ccccc21 (configuration not stated)	> 5.00	7.43	8.17	7.36	7.79	8.06
CCC1C(=O)N(C2CCN([C@H]3CC[C@@H](C(C)C)CC3)CC2)c2ccccc21 (some centres not stated)	> 5.00	8.33	8.07	7.08	8.97	8.28
CC1CC(=O)N(C2CCN(C3CCCCCCC3)CC2)c2ccccc21 (configuration not stated)	> 5.00	7.24	7.02	7.56	7.63	7.39
CCC(C)(C)[C@H]1CC[C@@H](N2CCC(N3C(=O)Cc4ccccc43)CC2)CC1	–	6.72	7.08	6.80	7.79	7.82
CC1C(=O)N(C2CCN([C@H]3CC[C@@H](C(C)C)CC3)CC2)c2ccccc21 (some centres not stated)	> 5.00	6.92	7.26	7.38	8.44	8.19
O=C1Cc2ccccc2N1C1CCN(C2C3CCCC2CCC3)CC1 (configuration not stated)	> 5.00	7.54	–	–	–	–
CC(C)C1CCC(N2CCC(N3C(=O)Cc4ccccc43)CC2)CC1 (configuration not stated)	> 5.00	–	–	–	–	–
